The record followed here is publication PMC2896345 (BMC Structural Biology, 2010).

The target in experiment [1] is T1, human RACK1 (receptor of activated kinase 1), 6xHis-tagged (human, UniProt P63244 1-317). The experiment can be described thus: other fluorescence titration; intrinsic tryptophan fluorescence (excitation 295 nm) of 1 uM RACK1 titrated with Ki-1/57(122-413); 25 °C, 20 mM Tris-HCl pH 7.5; difference at 334 nm from 0.3 to 1.4 uM fitted with a modified Hill equation. The note with it: both partners purified.

Experiment [2] concerns the target T1, human RACK1 (receptor of activated …). The experiment can be described thus: AUC; sedimentation equilibrium, 4 °C, 12,000, 15,000 and 18,000 rpm; both proteins at 300 ug/mL (~8.0 uM) in 20 mM Tris-HCl pH 7.5, 500 mM NaCl, 3% glycerol; 1:1 hetero-association model (SedPhat). The settings on record: both partners purified.

One may read the Kd as a measure of binding affinity in units of concentration. A higher Kd goes with a looser complex. By stoichiometry N is commonly meant a count of units in the complex or per binding partner.

B1: Ki-1/57(122-413) (domain or fragment)
chain: PRRGEQQGWNDSRGPEGMLERAERRSYREYRPYETERQADFTAEKFPDEKPGDRFDRDRPLRGRGGPRGGMRGRGRGGPGNRVFDAFDQRGKREFERYGGNDKIAVRTEDNMGGCGVRTWGSGKDTSDVEPTAPMEEPTVVEESQGTPEEESPAKVPELEVEEETQVQEMTLDEWKNLQEQTRPKPEFNIRKPESTVPSKAVVIHKSKYRDDMVKDDYEDDSHVFRKPANDITSQLEINFGNLPRPGRGARGGTRGGRGRIRRAENYGPRAEVVMQDVAPNPDDPEDFPALS
notes: recombinant protein 37.3 kDa; source: bacterial expression (pPROEx), purified in two steps as described previously
Turning to B1, the Kd in experiment [1] was roughly 600 nM. In experiment [2], the Ka is roughly 1.5e+06 M⁻¹, binding was put at a Kd of 700 ± 100 nM and the “stoichiometry N” value is 1.
